Tested on: Stage 4 pancreatic ductal adenocarcinoma
Assay type: in vivo, human
Details: by month six; absence of feeling in hands and feet
Description: SalpIL2 was administered to Patient 1 every two weeks with standard of care chemotherapy.
A patient with metastatic pancreas cancer (hereinafter referred to as “Patient 1”) individually sought out the possibility of receiving SalpIL2 in addition to their standard of care chemotherapy.
Patient 1 was a person with a past medical history of hypercholesterolemia and presented with a several week history of abdominal pain and bloating. Patient 1's workup eventually elucidated a 3.9×5.7 cm mass in the tail of the pancreas with invasion of the splenic hilum and left adrenal gland. In addition, there were multiple metastatic nodules in the lungs and liver of Patient 1. Subsequent fine needle aspiration and biopsy confirmed the diagnosis of Stage 4 pancreatic ductal adenocarcinoma. Patient 1 was immediately started on the FOLFIRINOX regimen of leucovorin, 5-fluorouracil, irinotecan, and oxaliplatin administered every two weeks. Well aware of their prognosis of a median survival of 11.1 months, Patient 1 reached out for the possibility of adding SalpIL2 to their treatment regimen. […]

Q: How did the “Neurotoxicity in Patient 1” value turn out when oxaliplatin was run?
A: severe neurotoxicity

From patent US12636320B2, “Methods and agents for treating solid tumor cancers” (priority 2019, dated 2026)
